Here are results for three compounds from patent US20260384420A1, “TEGOPRAZAN CRYSTAL FORM B AND PREPARATION METHOD THEREFOR” (published 2026).

The conditions of data set [1]: in vivo; cited from earlier work.
A further data set relates to proton pumps. Particulars: cited from earlier work.
Data set [2] in a line: Photostability (light exposure) test, XRPD and HPLC. As to conditions: for Purity of starting material (before light exposure) / Purity after light exposure: HPLC; for Purity of starting material (before light exposure): baseline; for Photostability, crystal form B compared with crystal form A / XRPD crystal form after light exposure / Purity after light exposure: total illumination 1.2×10^6 Lux hr; for XRPD crystal form after light exposure / Purity after light exposure: 5000 Lux, 90 uV/cm^2.

Data set [3] is described as follows: Stability test: crystal form by XRPD and chemical purity by HPLC after exposure to temperature/humidity. Particulars: for Purity after stability study: HPLC.
Data set [4] can be described thus: Hygroscopicity test by dynamic vapour sorption (DVS), XRPD before and after. As to conditions: listed as Crystal form B.
The nature of data set [5]: Thermogravimetric analysis (TGA) weight loss. Particulars: 0-150 °C.

`Cc1nc2c(O[C@H]3CCOc4cc(F)cc(F)c43)cc(C(=O)N(C)C)cc2[nH]1`: in data set [1], the Half-life period entry was “long half-life period”. Also, the “Inhibition of resting and active proton pumps” value with proton pumps was “inhibits both resting and active proton pumps simultaneously”.
On to `Cc1nc2c(O[C@H]3CCOc4cc(F)cc(F)c43)cc(C(=O)N(C)C)cc2[nH]1` [crystal form A], for which, in data set [2], the “Purity of starting material (before light exposure)” value is given as “is 99.8%)”; the “Photostability, crystal form B compared with crystal form A” value is “the same photostability”; the “XRPD crystal form after light exposure” value is listed as “form A”; the “Purity after light exposure” value is on record as 99.8% (The. Besides, in data set [3] (25 °C/60% RH, two weeks), the “XRPD crystal form after stability study” value is given as “crystal form A” and the “Purity after stability study” value is given as 99.6%. Moreover, in data set [3] (25 °C/92.5% RH, two weeks), the “XRPD crystal form after stability study” value is “crystal form A” and the “Purity after stability study” value stood at 99.7%. In data set [3] (40 °C/75% RH, two weeks), the “XRPD crystal form after stability study” value is on record as “crystal form A” and the “Purity after stability study” value was found to be 99.5%.
As to `Cc1nc2c(O[C@H]3CCOc4cc(F)cc(F)c43)cc(C(=O)N(C)C)cc2[nH]1` [crystal form B], the “Change of crystal form before and after hygroscopicity test” value in data set [4] (0-90-0% RH, XRPD) was “unchanged, still crystal”. The “Weight gain (moisture adsorption)” value in data set [4] (60%-80% relative humidity, DVS) worked out at 0.31%. The TGA weight loss result in data set [5] is on record as “about 0.67%”. In data set [5] (heating rate 10 °C/min), the “TGA weight loss (general statement)” value was “no more than 2%” and the “TGA weight loss (preferably)” value is “no more than 0.7%”. Moreover, in data set [2], the “Purity of starting material (before light exposure)” value is “is 99.8%)”; the “Photostability, crystal form B compared with crystal form A” value was “the same photostability”; the “XRPD crystal form after light exposure” value is “form B”; the “Purity after light exposure” value is 99.8% (The. Further, in data set [2] (total illumination not less than 1.2×10^6 Lux hr), the “Change in chemical purity after illumination” value is listed as “no significant change”. The “Water absorption / transformation into another crystal form” value in data set [3] (25 °C and 92.5% RH) is “will not absorb water molecules or transform into any other crystal form”. Also, the Storage time result in data set [3] (25 °C/60% RH, 40 °C/75% RH and 25 °C/92.5% RH) is on record as “at least two”. Moreover, in data set [3] (25 °C/60% RH, two weeks), the “XRPD crystal form after stability study” value is on record as “crystal form B” and the “Purity after stability study” value turned out to be 99.8%. Further, in data set [3] (25 °C/92.5% RH, two weeks), the “XRPD crystal form after stability study” value is “crystal form B” and the “Purity after stability study” value turned out to be 99.7%. In addition, in data set [3] (40 °C/75% RH, two weeks), the “XRPD crystal form after stability study” value is “crystal form B” and the “Purity after stability study” value came to 99.7%. Moreover, the “XRPD before and after the stability test” value in data set [3] (FIG. 7) is recorded as “unchanged”. For the same compound, the “Stability compared with crystal form A” value in data set [3] (three humidity and temperature conditions, two weeks) is “equivalent stability as crystal form A”.
